# Test: in vivo
# Conditions: Sprague-Dawley, rat, po, 10 mg/kg
compound,measurement,value
CCC(CC)O[C@@H]1C=C(C(=O)O)C[C@H](N)[C@H]1NC(C)=O [OSELTAMIVIR CARBOXYLATE],half-life at 24 h,636 min

# Source: ChEMBL document CHEMBL4680272 (Eur J Med Chem, 2020)
